Target: PPAR-γ (Homo sapiens, UniProt P37231)
Assay: PPAR-γ-dependent PPRE reporter (3-PPRE-TK.pGL3) with PPAR-γ expression construct
Settings: both cell types (myometrial, amnion), PPAR-γ overexpressed, 10 mM or 20 mM, 24 h

Protein sequences, listed by entry. Tags and fused reporters are not part of them.
UniProt P37231, whole entry, species assumed: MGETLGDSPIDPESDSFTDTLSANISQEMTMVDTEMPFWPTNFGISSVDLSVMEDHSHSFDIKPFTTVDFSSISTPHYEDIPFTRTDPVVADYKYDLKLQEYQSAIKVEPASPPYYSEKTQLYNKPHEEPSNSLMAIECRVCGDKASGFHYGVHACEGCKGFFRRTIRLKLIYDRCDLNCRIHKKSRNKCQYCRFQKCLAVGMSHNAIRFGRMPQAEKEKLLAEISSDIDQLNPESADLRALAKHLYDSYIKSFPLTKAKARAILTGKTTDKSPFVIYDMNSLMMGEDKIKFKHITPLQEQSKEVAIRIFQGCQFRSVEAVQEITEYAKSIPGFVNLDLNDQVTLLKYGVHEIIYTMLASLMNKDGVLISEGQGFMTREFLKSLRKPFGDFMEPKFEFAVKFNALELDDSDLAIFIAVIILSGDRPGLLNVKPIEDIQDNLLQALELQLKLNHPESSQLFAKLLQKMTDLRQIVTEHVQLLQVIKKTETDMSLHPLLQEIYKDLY

- PPAR-γ-mediated transcription of a PPRE-dependent reporter: potentiating
Structure (SMILES): CN(CCOc1ccc(C[C@H](Nc2ccccc2C(=O)c2ccccc2)C(=O)O)cc1)c1ccccn1 [GW1929]

— patent US20070270392A1, “Use of a Cyclopentenone Prostaglandin for Delaying the Onset and/or Preventing the Continuation of Labour” (Imperial College Innovations Limited, priority 2003, published 2007)
